The results in this text go back to patent US20250057836A1, “Compositions And Methods Targeting G12 Signaling For Bronchodilator Therapy” (Rutgers, The State University of New Jersey, priority 2017, published 2025).

This experiment concerns SRE-luciferase reporter (luciferase expression upon Gα12 activation). As to the kind of experiment: SRE-luciferase assay in hTERT-immortalized HASMCs. The conditions noted are these: control hTERT-immortalized HASMCs, carbachol 10 μM, 6 hours.

Regarding `C[N+](C)(C)CCOC(N)=O.[Cl-]` [Carbachol, carbamoyl choline chloride], the “luciferase expression on carbachol stimulation” value worked out at 76±18 % fold.
